Literature values, collected in patent publication US6114391A, “α-amino acid amides, preparation thereof and the therapeutical use thereof” (priority 1996, dated 2000).

Conditions: literature data, in comparison with the present investigation; cited from earlier work

CCCC(CCC)C(=O)[O-].[Na+] [sodium valproate]
therapeutic index (in words): smaller therapeutic indexes
